Each structure is given as a SMILES string. Active and inactive are the calls of the source. The rule behind the calls is not given here. Some results are limits rather than exact numbers.

Protein sequences, listed by entry. Tags and fused reporters are not part of them. Lines headed by an entry give the natural chain unless they say otherwise; changes in a name come on top.
UniProt P06276, whole entry, looked up: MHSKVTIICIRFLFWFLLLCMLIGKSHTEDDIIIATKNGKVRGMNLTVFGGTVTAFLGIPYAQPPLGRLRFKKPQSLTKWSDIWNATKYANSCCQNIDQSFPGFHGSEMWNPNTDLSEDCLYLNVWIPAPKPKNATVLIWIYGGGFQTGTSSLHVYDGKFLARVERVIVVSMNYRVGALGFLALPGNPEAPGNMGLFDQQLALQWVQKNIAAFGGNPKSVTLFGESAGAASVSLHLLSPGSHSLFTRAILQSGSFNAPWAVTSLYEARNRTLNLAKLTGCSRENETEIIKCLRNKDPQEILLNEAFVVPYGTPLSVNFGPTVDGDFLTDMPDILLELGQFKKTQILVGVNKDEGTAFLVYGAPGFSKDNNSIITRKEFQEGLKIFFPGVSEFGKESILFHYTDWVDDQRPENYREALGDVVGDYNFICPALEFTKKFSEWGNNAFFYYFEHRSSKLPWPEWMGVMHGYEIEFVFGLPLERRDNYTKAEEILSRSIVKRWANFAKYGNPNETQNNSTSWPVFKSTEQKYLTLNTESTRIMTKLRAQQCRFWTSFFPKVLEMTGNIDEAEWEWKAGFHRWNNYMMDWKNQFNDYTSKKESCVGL
UniProt P22303: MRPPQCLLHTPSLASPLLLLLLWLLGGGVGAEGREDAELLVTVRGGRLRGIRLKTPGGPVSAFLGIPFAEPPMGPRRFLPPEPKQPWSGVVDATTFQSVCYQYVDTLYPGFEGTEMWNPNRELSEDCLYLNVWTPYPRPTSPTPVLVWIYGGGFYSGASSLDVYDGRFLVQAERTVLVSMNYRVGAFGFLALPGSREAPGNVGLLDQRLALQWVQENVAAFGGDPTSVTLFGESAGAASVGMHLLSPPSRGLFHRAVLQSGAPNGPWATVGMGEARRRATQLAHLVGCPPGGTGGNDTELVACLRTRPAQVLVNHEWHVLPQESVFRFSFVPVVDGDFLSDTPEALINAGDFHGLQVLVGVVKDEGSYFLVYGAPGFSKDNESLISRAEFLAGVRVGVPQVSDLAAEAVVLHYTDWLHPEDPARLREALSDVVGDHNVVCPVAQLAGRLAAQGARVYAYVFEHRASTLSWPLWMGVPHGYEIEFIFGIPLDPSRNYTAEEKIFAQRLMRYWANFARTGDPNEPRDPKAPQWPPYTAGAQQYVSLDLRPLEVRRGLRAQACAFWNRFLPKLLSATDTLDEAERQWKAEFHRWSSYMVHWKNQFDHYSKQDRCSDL

Experiment [1] deals with Cholinesterase (Homo sapiens) (UniProt P06276). The experiment in a line: Reactivation of POX-inhibited human recombinant BChE activity using BTCI as substrate at 1 to 1200 uM incubated for 0.5 to 15 mins. As to conditions: dose 1-1200 µM, time 0.5-15 min.
Experiment [2] concerns the target Acetylcholinesterase (Homo sapiens) (UniProt P22303). The experiment in a line: Reactivation of NEMP-inhibited human recombinant AChE activity using ATCI as substrate at 10 uM preincubated for 15 mins followed by substrate addition by absorbance based analysis. As to conditions: filed as activator.
Experiment [3] shares this target. The experiment in a line: Reactivation of NIMP-inhibited human recombinant AChE activity using ATCI as substrate at 10 uM preincubated for 15 mins followed by substrate addition by absorbance based analysis. As to conditions: filed as activator.
For experiment [4] the target is unchanged. The experiment can be described thus: Reactivation of POX-inhibited human recombinant AChE activity using ATCI as substrate at 10 uM preincubated for 15 mins followed by substrate addition by absorbance based analysis. As to conditions: filed as activator.
In experiment [5] the target is Cholinesterase (Homo sapiens) (UniProt P06276). The experiment in a line: Reactivation of NEDPA-inhibited human recombinant BChE activity using BTCI as substrate at 100 uM preincubated for 15 mins followed by substrate addition by absorbance based analysis. As to conditions: filed as activator.
Experiment [6] has the same target. The experiment can be described thus: Reactivation of NEMP-inhibited human recombinant BChE activity using BTCI as substrate assessed as fold change at 100 uM preincubated for 15 mins followed by substrate addition by absorbance based analysis relative to 2-PAM. As to conditions: filed as activator.
The target is the same in experiment [7]. The experiment can be described thus: Reactivation of POX-inhibited human recombinant BChE activity using BTCI as substrate at 100 uM preincubated for 15 mins followed by substrate addition by absorbance based analysis. As to conditions: filed as activator.
Experiment [8] has as its target Acetylcholinesterase (Homo sapiens) (UniProt P22303). The experiment can be described thus: Reactivation of NEDPA-inhibited human recombinant AChE activity using ATCI as substrate at 1 to 1200 uM incubated for 0.5 to 15 mins. As to conditions: filed as activator, dose 1-1200 µM, time 0.5-15 min.
The target in experiment [9] is Cholinesterase (Homo sapiens) (UniProt P06276). The experiment can be described thus: Reactivation of NEMP-inhibited human recombinant BChE activity using BTCI as substrate at 1 to 1200 uM incubated for 0.5 to 15 mins. As to conditions: filed as activator, dose 1-1200 µM, time 0.5-15 min.
Experiment [10] has the same target. The experiment can be described thus: Reactivation of NEMP-inhibited human recombinant BChE activity using BTCI as substrate at 100 uM preincubated for 15 mins followed by substrate addition by absorbance based analysis. As to conditions: filed as activator.
Experiment [11] has the same target. The experiment can be described thus: Reactivation of NIMP-inhibited human recombinant BChE activity using BTCI as substrate at 100 uM preincubated for 15 mins followed by substrate addition by absorbance based analysis.
Experiment [12] concerns the target Acetylcholinesterase (Homo sapiens) (UniProt P22303). The experiment can be described thus: Reactivation of NEDPA-inhibited human recombinant AChE activity using ATCI as substrate at 10 uM preincubated for 15 mins followed by substrate addition by absorbance based analysis. As to conditions: filed as activator.
The target is the same in experiment [13]. The experiment in a line: Reactivation of NEMP-inhibited human recombinant AChE activity using ATCI as substrate at 1 to 1200 uM incubated for 0.5 to 15 mins. As to conditions: filed as activator, dose 1-1200 µM, time 0.5-15 min.
For experiment [14] the target is unchanged. The experiment in a line: Reactivation of NIMP-inhibited human recombinant AChE activity using ATCI as substrate at 1 to 1200 uM incubated for 0.5 to 15 mins. As to conditions: filed as activator, dose 1-1200 µM, time 0.5-15 min.
Experiment [15] has the same target. The experiment can be described thus: Reactivation of POX-inhibited human recombinant AChE activity using ATCI as substrate at 1 to 1200 uM incubated for 0.5 to 15 mins. As to conditions: filed as activator, dose 1-1200 µM, time 0.5-15 min.
For experiment [16] the target is unchanged. The experiment in a line: Reactivation of NIMP-inhibited human recombinant AChE activity using ATCI as substrate at low concentration preincubated for 15 mins followed by substrate addition by absorbance based analysis relative to control. As to conditions: filed as activator. More on the design: scale not given: the % may be the effect or the level left.

With `C[n+]1cccc(Br)c1/C=N/O`, the result in experiment [1] was inactive. The outcome in experiment [2], in experiment [3], in experiment [4], in experiment [7], in [9] and in experiment [12] was Active. For the same molecule, the Activity result in experiment [5] was “Active; Compound Showed Highest Activity”; in experiment [8] it was “Active; Faster Reactivation Observed”; in [10], “Active; Compound Showed Highest Activity”; in experiment [11], “Not active; Comparable To 2-Pam”. The fold change (FC) in [6] amounted to 2.
`C[n+]1cc(Br)ccc1/C=N/O`: the outcome in experiment [2], in [3], in [4], in experiment [5], in experiment [7] and in [12] was Active. The results for the Activity result in [10] and in experiment [11] were “Active; Slightly Comparable Ability To 2-Pam” and “Not active; Comparable To 2-Pam”, respectively.
Turning to `C[n+]1cc(F)ccc1/C=N/O`, the outcome in experiment [2], in [3], in experiment [4], in [5], in experiment [7] and in [13] was Active. For the same molecule, the outcome in experiment [12] was Active. Moreover, the figures for the Activity result in experiment [8], in experiment [10] and in [11] were “Active; Faster Reactivation Observed”, “Active; Slightly Comparable Ability To 2-Pam” and “Not active; Comparable To 2-Pam”, respectively.
Take `C[n+]1cc(Cl)ccc1/C=N/O`: the outcome in [2], in experiment [3], in experiment [4], in experiment [5], in [7] and in experiment [12] was Active. In addition, the Activity result was “Active; Slightly Comparable Ability To 2-Pam” in experiment [10] and “Not active; Comparable To 2-Pam” in experiment [11].
With `C[n+]1cccc(F)c1/C=N/O`, the result in [1] was inactive. Further, the Activity result in experiment [2] is “Active; Compound Showed Highest Activity”; in experiment [3] it was “Active; Compound Showed Highest Activity”; in [4], “Active; Compound Showed Highest Activity”; in experiment [14], “Active; Better Ability Than 2-Pam”; in experiment [8], “Active; Faster Reactivation Observed”; in experiment [11], “Not active; Comparable To 2-Pam”. Also, in experiment [12], the Activity entry was “Active; Compound Showed Highest Activity”. Besides, in experiment [6], the fold change (FC) stood at 2. The outcome in [7], in experiment [13], in experiment [9] and in [15] was Active.
On to `Nc1ccc2cc[n+](CCCCCc3ccc(O)c(/C=N/O)n3)c(-c3ccccc3)c2c1`, for which the Activity in experiment [16] was > 60%.
On the same count and under the same terms, to `O/N=C/c1nc(CCCCC[n+]2ccc3ccccc3c2-c2ccccc2)ccc1O` belongs > 60%.
With `C[n+]1cccc(Cl)c1/C=N/O`, the outcome in [1] was inactive. Moreover, the outcome in [2], in [3], in experiment [4], in [7], in experiment [13] and in experiment [12] was Active. Moreover, the fold change (FC) in experiment [6] is 2. The Activity result in experiment [8] is “Active; Faster Reactivation Observed”; in experiment [11], “Not active; Comparable To 2-Pam”.

Source of the values: ChEMBL document CHEMBL6087444, “Synthesis and Evaluation of Halogenated Pralidoximes in Reactivation of Organophosphate-Inhibited Cholinesterases” (2024).
